In PubChem BioAssay AID492947 (National Center for Advancing Translational Sciences (NCATS), 2010):
The entries are a selection whose mix differs from that of the whole data set. Some tests of the compounds listed are not included; inactive here does not mean inactive elsewhere. The source made the active and inactive calls. Calls come from the whole dose curve; as a rule, active = well fitted activation curve with a large enough effect; inconclusive = small, poorly fitted or top-dose-only effect; inactive = flat fitted curve, though single readings scatter.

Sequences of proteins named here, by UniProt entry; tags and fusion partners are left off.
UniProt P07550, whole entry: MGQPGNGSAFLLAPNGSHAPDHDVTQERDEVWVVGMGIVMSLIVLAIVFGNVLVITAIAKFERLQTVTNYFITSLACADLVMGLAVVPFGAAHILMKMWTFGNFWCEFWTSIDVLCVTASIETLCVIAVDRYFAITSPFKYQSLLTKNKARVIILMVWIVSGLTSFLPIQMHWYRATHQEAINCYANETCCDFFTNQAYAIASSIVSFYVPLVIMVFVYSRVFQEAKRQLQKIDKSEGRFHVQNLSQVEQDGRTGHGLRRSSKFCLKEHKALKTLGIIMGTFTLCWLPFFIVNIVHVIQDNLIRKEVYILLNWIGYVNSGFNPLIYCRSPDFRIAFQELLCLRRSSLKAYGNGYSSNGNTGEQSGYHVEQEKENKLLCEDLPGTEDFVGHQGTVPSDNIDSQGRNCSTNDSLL

These molecules were tested against Beta-2 adrenergic receptor (Homo sapiens) (UniProt P07550) (assay: qHTS assay of beta-arrestin-biased ligands of beta2-adrenergic receptor). Conditions: beta-arrestin recruitment to beta2AR, cell-based reporter; at 46.1 µM (top of the series).
Source text: NIH Molecular Libraries Probe Production Network [MLPCN]
NIH Chemical Genomics Center [NCGC]
PI: Bryan Roth and Bob Lefkowitz
The concept of biased agonism is an emerging concept of molecular pharmacology which proposes that seven transmembrane receptors (7TMRs) or G protein-coupled receptors (GPCRs), exist in multiple signaling conformations and complexes and that ligands (either agonists or antagonists) can induce signaling biased responses for distinct signal transduction cascades.
Furthermore, accumulating evidence over the last decade has drawn attention to a novel function of beta-arrestins as signal transducers that scaffold various signaling molecules upon activation of 7TMRs. […] This beta-arrestin-biased signaling presumably leads to distinct physiological outcomes from those by G protein activation.
Additionally, the active receptor conformations which […] on this beta-arrestin signaling are likely different from those activating G protein signaling
The goal of this screening project will be to discover and optimize novel beta-arrestin-biased ligands for beta2-AR signaling. A luminescent cell-based assay for beta2-AR-mediated agonism, known as the Tango assay, has been validated in which ligand binding of a recombinant beta2-AR and subsequent recruitment of a recombinant beta-arrestin lead to the release of the transcriptional activator tTA, which upregulates transcription of a tTA-responsive luciferase gene. […] Compounds were screened as a concentration-titration series that ranged from 46 microM to 0.6 nM.
NCGC Assay Protocol Summary:
Tango cells were dispensed into white, solid, tissue-culture-treated 1536-well plates at 1500 cells/well in DMEM, containing 1% fetal bovine serum (FBS). Then, 23 nL of compounds or DMSO were delivered to each well using a pin tool. Plates were incubated at 37 degrees C, 5% CO2 for 18 hr. Then 2.5 uL luminescent substrate mix (in-house prepared: 150 mM Tris-Cl, pH 7.6, 3 mM MgCl2, 1% Triton X-100, 5 mM DTT, 0.5 mM CoA, 0.15 mM ATP, 0.44 mM D-luciferin, final concentrations) was added to each well. Plates were then incubated for 15 minutes at room temperature, and subsequently measured on a ViewLux plate reader for luminescent signal using a clear filter with a 10 second exposure and 2x binning. The %Activity was determined from the corrected luminescence values.
Concentration-response curves were fitted to the signals arising from the resulting luminescence. The concentration-effect curves were then classified based on curve quality (r2), response magnitude and degree of measured activity, and compounds were subsequently categorized based on their curve class.
Keywords: biased agonism, beta2-AR, beta-arrestin, GPCR, 7TMR, Tango, luminescence, MLSMR, MLPCN, NIH Roadmap, qHTS, NCGC
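Note: 0% = DMSO controls and full agonism = EC100 isoproterenol or metaproterenol; nearly all actives have a fitted effect of over 65% in size.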

Row | SMILES | activation
1 | CC(C)Oc1ccc(C(=O)NCC2(N(C)C)CCCCC2)cc1 | inactive: 0.0555%
2 | CN(C)c1cccc(C(=O)NCC2(N(C)C)CCCCC2)c1 | inactive: 0.0018%
3 | COc1ccc(Br)c(C(=O)NCC2(N3CCCCC3)CCCCC2)c1 | inactive: -0.862%
4 | O=C(OC1CN2CCC1CC2)C(CO)(c1ccccc1)c1ccccc1 (centres undefined) | inactive: -0.405%
5 | O=C(NCC1(N2CCCCC2)CCCCC1)c1cccc(Cl)c1 | inactive: -0.326%
6 | COc1ccc(Cl)cc1C(=O)NCC1(N(C)C)CCCCC1 | inactive: -0.328%
7 | COc1cccc(C(=O)NCC2(N3CCCCC3)CCCCC2)c1 | inactive: 0.288%
8 | COc1cc(C(=O)NCC2(N(C)C)CCCCC2)c([N+](=O)[O-])cc1OC | inactive: -0.0663%
9 | CN(C)C1(CNC(=O)c2ccc(Br)cc2)CCCCC1 | inactive: 6.07%
10 | COc1ccc(C(=O)NCC2(N(C)C)CCCCC2)cc1 | inactive: -0.856%
11 | O=C(NCC1(N2CCCCC2)CCCCC1)c1cccc(Br)c1 | inactive: -0.37%
12 | Cc1cc(C(=O)NCC2(N3CCCCC3)CCCCC2)ccc1[N+](=O)[O-] | inactive: -0.193%
13 | CCN1CCCC(OC(=O)C2(O)c3ccccc3C=Cc3ccccc32)C1 (centres undefined) | inactive: -0.863%
14 | O=C(NCC1(N2CCCCC2)CCCCC1)c1cc(F)c(F)cc1Cl | inactive: -0.835%
15 | C=CCN1CCN(CCOC(=O)C(O)(c2ccccc2)c2ccccc2)CC1 | inactive: -0.898%
16 | CN(C)C1CCCC1OC(=O)C(O)(c1ccccc1)c1ccccc1 (centres undefined) | inactive: -0.788%
17 | CN(C)c1ccc(C(=O)NCC2(N(C)C)CCCCC2)cc1 | inactive: 0.0503%
18 | Cc1ccccc1C(=O)NCC1(N2CCCCC2)CCCCC1 | inactive: -0.0885%
19 | Cc1ccc(C(=O)NCC2(N3CCCCC3)CCCCC2)cc1 | inactive: -1.23%
20 | COc1cc(SC)ccc1C(=O)NCC1(N(C)C)CCCCC1 | inactive: -0.891%
21 | CCN(CC)CC(C)C(C)OC(=O)C(O)(c1ccccc1)c1ccccc1 (centres undefined) | inactive: -0.105%
22 | CC(C)N1C(=O)CC2(CCN(CCOC(=O)C(O)(c3ccccc3)c3ccccc3)CC2)C1=O | inactive: 0.0407%
23 | CN1[C@@H]2CC[C@H]1CC(OC(=O)C(O)(c1ccccc1)c1ccccc1)C2 (some centres undefined) | inactive: -0.238%
24 | O=C(NCC1(N2CCCCC2)CCCCC1)c1cc([N+](=O)[O-])ccc1Cl | inactive: -0.0324%
